pKi: −log10 of the molar value.
Biological target: human Dopamine D1 receptor (Homo sapiens, UniProt P21728)
Assay: radioligand binding competition assay, displacement of [3H]SCH 23390 from D1 receptor (Ltk-cells membranes)
Conditions: read-out: D1 binding and D2:D1 Selectivity, class combines Ki (D1) and, for A and B
Description: Biological Activity: Compounds from this disclosure have been biologically characterized by their ability to displace a known D1-like selective ligand, [3H]SCH 23390 from the human Dopamine D1 receptor, and a known D2-like selective ligand, [3H] Methylspiperone, from the human Dopamine D2 and D4 receptors.
Affinity values (Ki) of compounds at human dopamine receptors were ascertained using radioligand binding competition assays. Cells expressing D1 (Ltk-cells), D2 (long variant, Ltk-cells), D4 (CHO cells) and D5 (GH4C1 cells) receptors were lysed in hypotonic buffer for membrane preparation. Membranes were incubated with various concentrations of test compound and 1 nM [3H] SCH 23390 (D1 and D5) and 0.2 nM [3H] Methylspiperone for (D2 and D4) assays. Non-specific binding was defined as binding in the presence of 10 micromolar of SCH 23390 for D1 and D5 assays and 10 micromolar butaclamol for D2 and D4 assays. Following incubation to equilibrium (1 hour at room temperature), bound radioligand was separated from free by rapid filtration. Bound radioactivity on the dried filters was quantified by liquid scintillation counting.
Selectivity is determined by dividing Ki for D2, D4 or D5 receptors by Ki for D1 receptor.

By UniProt entry, the sequences of proteins in these tests, tags left out.
UniProt P21728, whole entry: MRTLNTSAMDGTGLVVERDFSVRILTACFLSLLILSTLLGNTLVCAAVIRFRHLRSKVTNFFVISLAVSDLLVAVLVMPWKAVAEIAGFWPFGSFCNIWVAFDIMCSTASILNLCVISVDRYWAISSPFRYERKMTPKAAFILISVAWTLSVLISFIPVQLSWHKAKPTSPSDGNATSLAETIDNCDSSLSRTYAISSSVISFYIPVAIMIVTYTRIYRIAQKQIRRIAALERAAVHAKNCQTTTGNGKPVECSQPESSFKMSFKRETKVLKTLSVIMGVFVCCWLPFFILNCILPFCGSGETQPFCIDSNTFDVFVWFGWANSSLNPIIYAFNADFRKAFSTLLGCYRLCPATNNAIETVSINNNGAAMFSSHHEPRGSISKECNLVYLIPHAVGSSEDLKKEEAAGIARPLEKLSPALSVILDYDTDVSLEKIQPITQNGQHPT

With `Cn1ccc2cc(-c3ccc(/C=C/C(=N)Nc4ccc(Cl)cc4)cc3)ccc21` the pKi was 7.30 to 8.00.

From patent US7423149B2, “Substituted n-aryl amidines as selective D1 dopamine receptor antagonists for the treatment of obesity and CNS disorders” (Schering Corporation, priority 2003, dated 2008)
